## scFv variants of Ab-14 (heavy chain) against a SARS-CoV-2 spike peptide

The measurements come from Li et al. 2023 (doi:10.1038/s41467-023-39022-2) through the FLAb antibody collection.

All variants were tested on one target, the spike HR2 peptide PDVDLGDISGINAS (SARS-CoV-2).

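The parent was found by panning a naive human phage display library on the peptide. The variants were designed computationally from a first round of random CDR variants and then made and measured. Group labels follow the data file (En: ensemble of fine-tuned language models; HC: hill climbing; Gen: genetic algorithm; Gibbs: Gibbs sampling; a sequence that several methods proposed may carry one label only). Affinity was read by AlphaSeq, a pooled yeast mating assay with surface-displayed partners. Pairs that bind mate more often; barcode pairs of the diploids are counted by sequencing. A regression on co-assayed BCL2-family reference pairs converts the normalised counts of each replicate to an apparent Kd. Each pool was mated in six replicate cultures.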

Parent scFv Ab-14: VH joined to VL by a 15-residue (Gly4Ser)3 linker. Changes lie in the heavy chain CDRs alone.
VH: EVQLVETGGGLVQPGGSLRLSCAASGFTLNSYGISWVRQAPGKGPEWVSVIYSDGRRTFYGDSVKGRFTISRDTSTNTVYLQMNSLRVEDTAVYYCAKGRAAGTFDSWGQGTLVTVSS
VL: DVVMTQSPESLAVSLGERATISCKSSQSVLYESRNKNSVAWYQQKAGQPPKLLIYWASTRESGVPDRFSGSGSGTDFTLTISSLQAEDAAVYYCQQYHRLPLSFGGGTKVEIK

Each variant is given by its three heavy chain CDRs, as the data file delimits them; those of the parent are GFTLNSYGIS, VIYSDGRRTFYGDSVK, GRAAGTFDS. Variants here have more than six changes. Affinities are written as log10 Kd with Kd in nM; a lower number is a better binder. Averages over replicates are reported, and they cover detected replicates only. "ND" means that the variant was in the library but no mating with the target was seen in that replicate; the authors take this as a sign of poor binding, and no number exists. As a blank, each scFv also met three strains without target: over all heavy chain designs, 1% of these pairings were detected, typically at 2.08 and seldom below 0.84. The control count says in how many pairings with the empty strains this scFv gave a signal. Values of this round are not directly comparable with the first-round values of the same sequences. The authors' rule: three or more of the six replicates give a measured affinity, fewer mean a poor binder. The parent sequence was in this pool as ten entries: three were never detected, three once, and four in most replicates, with averages from 0.34 to 2.37.

Variant GFDLNEYGIS / VIYADGRRTFYTDSVK / GGNAGTFDT [En_HC] gave -1.02, ND, -1.51, -0.77, -1.26, -0.71 (mean -1.05; controls 0 of 18). Variant GFQLNEYGIS / VIYADGMRSEYQNSVK / GSNSSSFKV [En_Gibbs] gave ND, ND, 2.17, ND, ND, ND (controls 0 of 18). Variant GFDLNEYGIS / VIYADGMRTAYSDSVK / GQTAGTFDV [En_Gen] gave -0.55, -0.64, -0.47, -0.63, -0.32, -0.72 (mean -0.55; controls 0 of 18). With GFSLDEYGIS / VIYADGARAFYANDVK / GNITDVFGK [En_Gibbs] the result was ND, ND, ND, ND, ND, ND (controls 0 of 18). Variant GFNLDEYGIS / VIYADGRRTFYSDSVK / GEGAGTFDF [En_HC] showed 1.72, 1.24, 0.83, 0.59, 0.75, 3.22 (mean 1.39; controls 0 of 18). With GFDLNEYGIS / VIYADGMRTAYADSVK / GEVAGTFDQ [En_Gen] the result was -0.48, -0.34, -0.56, -0.73, -0.53, -0.23 (mean -0.48; controls 0 of 18). Variant GFDLNEYGIS / VIYADGRRTAYVDSVK / GNVAGTFDV [En_Gen] showed -0.32, 0.37, -0.22, -0.07, -0.11, 0.50 (mean 0.02; controls 0 of 18). Variant GFDLNEYGIS / VIYADGQRTFYTDSVK / GEAAGTFDQ [En_HC] gave -0.45, -0.43, -0.57, -0.70, -0.47, -0.35 (mean -0.49; controls 1 of 18). Variant GFDLNEYGIS / VIYADGQRTAYADDVK / GENAGTFDM [En_Gen] showed ND, ND, ND, ND, ND, ND (controls 0 of 18).

For GFDLNEYGIS / VIYADGMRTFYADSVK / GNAAGTFDV [En_HC], the assay gave 1.14, ND, 0.69, 1.38, 0.67, 2.01 (mean 1.18; controls 1 of 18). With GFDLKEYGIS / VIYADGMRQVYINSFK / GDSGGIINF [En_Gibbs] the result was ND, ND, ND, ND, ND, ND (controls 0 of 18). Variant GFDLNEYGIS / VIYADGKRTFYSDSVK / GEIAGTFDS [En_HC] gave -0.05, -0.27, -0.78, -0.28, -0.62, -0.48 (mean -0.41; controls 0 of 18). With GFDLNEYGIS / VIYADGLRTAYADSVK / GNVAGTFDV [En_Gen] the result was -0.40, -0.66, -0.42, -0.36, -0.76, -0.23 (mean -0.47; controls 0 of 18). With GFDLNEYGIS / VIYADGQRTAYADSVK / GQVAGTFDI [En_Gen] the result was -0.46, -0.62, -0.53, -0.98, -0.74, -0.80 (mean -0.69; controls 0 of 18). Variant GFDLNEYGIS / VIYADGMRTYYADSVK / GGNAGTFDI [En_Gen] gave 0.60, 0.06, -0.08, 0.44, 0.15, 0.27 (mean 0.24; controls 1 of 18). With GFDLDEYGIS / VIYADGQRTAYADSVK / GETAGTFDV [En_Gen] the result was 0.03, -0.23, -0.58, -0.66, -0.15, -0.24 (mean -0.30; controls 1 of 18). Variant GFDLDEYGIS / VIYADGMRTYYADSVK / GENAGTFDI [En_Gen] showed 0.05, -0.01, 0.15, -0.09, 0.12, 0.14 (mean 0.06; controls 0 of 18). Variant GFDLEDYGIS / VIYADGKRTAYADSVK / GNVAGTFDT [En_Gen] gave -0.40, -0.47, -0.20, -0.43, -0.72, -0.61 (mean -0.47; controls 0 of 18).

Variant GFDLNEYGIS / VIYADGMRTHYTDSVK / GNEAGTFDT [En_HC] showed 0.06, 0.01, 0.12, -0.23, 0.15, 0.33 (mean 0.07; controls 0 of 18). For GFDLNEYGIS / VIYADGMRTAYADDVK / GNVAGTFDI [En_Gen], the assay gave -0.70, -0.48, -1.00, -0.69, -1.70, -0.68 (mean -0.87; controls 0 of 18). For GESLNEYGIS / VIYADGVRSGYTNKVK / GQNTGAVSD [En_Gibbs], the assay gave ND, ND, ND, ND, ND, ND (controls 0 of 18). Variant GFDLDEYGIS / VIYADGQRTAYVDSVK / GEVAGTFDV [En_Gen] gave ND, ND, ND, ND, ND, ND (controls 0 of 18). Variant GFDLNEYGIS / VIYADGVRTFYADSVK / GNVAGTFDI [En_Gen] gave 0.09, -0.15, -0.16, -0.28, -0.34, -0.05 (mean -0.15; controls 2 of 18). With GFDLNEYGIS / VIYADGMRTFYADSVK / GQTAGTFDV [En_Gen] the result was -0.08, 0.40, 0.32, 0.50, -0.28, -0.17 (mean 0.11; controls 0 of 18). Variant GFDLNEYGIS / VIYADGMRTAYADSVK / GSNAGTFDI [En_Gen] gave 0.12, -0.09, 0.29, 0.47, 0.09, 0.46 (mean 0.22; controls 0 of 18). For GDALNEYGIS / VIYADGFRAAYTDKVK / GVTVGNFSS [En_Gibbs], the assay gave ND, ND, ND, ND, ND, 3.02 (controls 0 of 18). Variant GFDLNEYGIS / VIYADGMRTAYADDVK / GTNAGTFDM [En_Gen] showed -0.06, -0.35, -0.47, -0.71, 0.06, -0.29 (mean -0.30; controls 0 of 18).

For GFTLDEYGIS / VIYADGRRTFYADSVK / GTVAGTFDQ [En_HC], the assay gave -0.20, -0.56, -0.69, -0.63, -0.71, -0.38 (mean -0.53; controls 0 of 18). Variant GFDLNEYGIS / VIYADGSRSYYADNVK / GVMNIMMEV [En_Gibbs] showed ND, ND, 1.58, ND, ND, ND (controls 0 of 18). Variant GNDLDEVGIS / VIYADGVRNQYIQSVK / GHNAGTFDY [En_Gibbs] showed ND, ND, ND, ND, ND, ND (controls 0 of 18). For GFDLEEYGIS / VIYADGRRTFYADKVK / GENAGTFDI [En_HC], the assay gave -1.27, -0.72, -0.21, -1.76, ND, -0.09 (mean -0.81; controls 0 of 18).

3 of these entries, quoted again:

CDR-H1	CDR-H2	CDR-H3	group	log10 Kd (nM) by replicate	log10 Kd (nM), mean	signal with controls
GDALNEYGIS	VIYADGFRAAYTDKVK	GVTVGNFSS	En_Gibbs	ND, ND, ND, ND, ND, 3.02	3.02	0/18
GFDLNEYGIS	VIYADGVRTFYADSVK	GNVAGTFDI	En_Gen	0.09, -0.15, -0.16, -0.28, -0.34, -0.05	-0.15	2/18
GFDLNEYGIS	VIYADGMRTAYSDSVK	GQTAGTFDV	En_Gen	-0.55, -0.64, -0.47, -0.63, -0.32, -0.72	-0.55	0/18